Patent US5861426A, “Nitro compounds of the formula A-Xi -NO2 and their compositions having anti-inflammatory, analgesic and anti-thrombotic activities” (Nicox S.A., priority 1994, dated 1999)

Tested on: human platelets stimulated by thrombin
Test: Platelet anti-aggregating activity in vitro
Type: cell-based
Conditions: 10^-5 to 10^-7 molar range, natural product = 1.0

## O=C(O)Cc1ccccc1Nc1c(Cl)cccc1Cl [DICLOFENAC, reference compound]
  platelet anti-aggregating (II), potency ratio versus natural product: 1.0
